Experiments:
Mouse B7-H3 = biological target: T1, Mouse B7-H3 (Mus musculus, UniProt Q8VE98); assay: Species specificity ELISA, mouse B7-H3; type: binding
T1 construct: purchased SinoBiological 50973-M08H
T1 sequence (Q8VE98 29-316): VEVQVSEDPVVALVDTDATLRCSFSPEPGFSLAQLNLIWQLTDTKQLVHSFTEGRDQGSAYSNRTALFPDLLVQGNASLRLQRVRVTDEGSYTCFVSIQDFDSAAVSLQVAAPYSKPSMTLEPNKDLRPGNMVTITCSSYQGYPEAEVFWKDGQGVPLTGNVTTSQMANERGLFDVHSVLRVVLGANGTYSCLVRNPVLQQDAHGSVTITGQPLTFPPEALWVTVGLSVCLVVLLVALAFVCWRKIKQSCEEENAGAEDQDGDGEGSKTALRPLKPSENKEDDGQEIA
Method: The day before the experiment, the target antigens cynomolgus monkey B7-H3 (novoprotein CA61), mouse B7-H3 (SinoBiological, 50973-M08H) and hB7-H3-his were each diluted to 2 μg/mL with 1×PBS and added to a ELISA plate (96-well plate) at 1001 μL/well (two rows for each antigen), and the wells were coated overnight at 4° C. […]

MDA-MB-468 cells = assay: Internalization of humanized antibodies by flow cytometry, MDA-MB-468 cells; type: cell-based
Method: (§1) 30 μg/mL of humanized antibody was prepared by using a cell washing solution (PBS containing 2% FBS) pre-cooled on ice and well mixed with cells (MDA-MB-468 cells or N87 cells, 500,000 cells) according to a volume ratio of 1:1 (the final volume is 100 μL), and the mixture was incubated in an ice bath for 1 h; the mixture was then centrifuged at 1200 r/min and 4° C. for 5 min, and the supernatant was discarded; the cells were resuspended in the cell washing solution pre-cooled on ice and centrifuged at 1200 r/min and 4° C. for 5 min and the supernatant was removed, and the procedure was repeated twice; the cells were resuspended in 200 μL of cell washing solution pre-cooled on ice, incubated at 37° C. for 2 h to internalize the antibody bound to the cell surface and then transferred to an ice bath, and the cell washing solution pre-cooled on ice was added to terminate the internalization; the cells were centrifuged at 1200 r/min and 4° C. for 5 min, the supernatant was discarded, 100 μL of a PE-labeled goat anti-human IgG Fc secondary antibody diluent (Invitrogen, cat #12-4998-82, prepared with the cell washing solution pre-cooled on ice and a PE-labeled goat anti-human IgG Fc secondary antibody (500:1)) was added; the cells were resuspended, and incubated at 4° C. for 30 min in the absence of light and centrifuged at 1200 r/min and 4° C. for 5 min, and the supernatant was discarded; the cells were resuspended in the cell washing solution pre-cooled on ice and centrifuged at 1200 r/min and 4° C. for 5 min and the supernatant was discarded, and the cells were resuspended in 1×PBS pre-cooled on ice and centrifuged at 1200 r/min and 4° C. for 5 min and the supernatant was discarded; 200 μL of 1×PBS pre-cooled on ice was added to resuspend the cells, and the mean fluorescence intensity was detected with a flow cytometer.

hB7-H3-His = biological target: T2, hB7-H3-His (Homo sapiens, UniProt Q5ZPR3); assay: BiaCore T200 affinity of ADC and Antibody V3 for hB7-H3-His; type: binding; details: antigen hB7-H3-His, 1:1 kinetic model
T2 construct: 10xHis (C); made in house; host or cells: HEK293F (transient transfection)
T2 sequence (Q5ZPR3 with tags, fused parts or gaps): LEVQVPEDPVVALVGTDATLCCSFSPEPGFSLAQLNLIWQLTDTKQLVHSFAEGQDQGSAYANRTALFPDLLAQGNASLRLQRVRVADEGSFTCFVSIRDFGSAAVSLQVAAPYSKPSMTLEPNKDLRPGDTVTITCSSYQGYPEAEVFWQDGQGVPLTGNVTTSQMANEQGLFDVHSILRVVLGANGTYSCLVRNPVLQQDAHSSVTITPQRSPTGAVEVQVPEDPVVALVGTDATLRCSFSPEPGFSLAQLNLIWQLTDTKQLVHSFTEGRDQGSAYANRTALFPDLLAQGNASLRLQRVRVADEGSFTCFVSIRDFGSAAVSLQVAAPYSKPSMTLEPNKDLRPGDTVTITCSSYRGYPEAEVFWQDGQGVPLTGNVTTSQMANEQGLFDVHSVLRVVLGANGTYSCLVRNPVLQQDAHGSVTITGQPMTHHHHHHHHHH
Method: Experiment results were analyzed using data analysis software Evaluation Software 3.1. The sensing signals acquired from the experiment flow channels for the samples were subjected to double subtraction (minus values of reference flow channels and blank control), and the fitting was performed using a “1:1” kinetic model to obtain the kinetic parameters (ka: association rate; kd: dissociation rate; kD: equilibrium dissociation constant) for the binding of each sample to hB7-H3-His.

N87 cells = assay: Internalization of humanized antibodies by flow cytometry, N87 cells; type: cell-based
Method: as §1

[1] = tested on: human liver cancer Hep 3B cell line; assay: Subcutaneous xenograft model of human liver cancer Hep 3B cell line; details: Day 25, 5 mg/kg i.v. single administration

Molecule | binding to mouse B7-H3 (Mouse B7-H3) | Fluorescence intensity of control group (before endocytosis) (MDA-MB-468 cells) | Fluorescence intensity after endocytosis (MDA-MB-468 cells; 37° C. for 2 h) | Percentage of endocytosis (MDA-MB-468 cells; 37° C. for 2 h) | ka (association rate) (hB7-H3-His) | kd (dissociation rate) (hB7-H3-His) | Fluorescence intensity of control group (before endocytosis) (N87 cells) | Fluorescence intensity after endocytosis (N87 cells; 37° C. for 2 h) | Percentage of endocytosis (N87 cells; 37° C. for 2 h) | Mean tumor volume ± SEM [1] | TGI [1]
Antibody V3: Humanized anti-B7-H3 antibody: VH SEQ ID NO: 36, CH 32, VL 40, CL 34; heavy chain SEQ ID NO: 50, light chain 52 (antibody) heavy: EVQLVQSGAEVKKSGESLKISCKASGYTFTDYDINWVRQMPGKGLEWIGWIFPGDDTTKYNEKFKGQVTLSADKSTNTAYMQWSSLKASDTAMYYCARSPSFDYWGQGTLVTVSSASTKGPSVFPLAPSSKSTSGGTAALGCLVKDYFPEPVTVSWNSGALTSGVHTFPAVLQSSGLYSLSSVVTVPSSSLGTQTYICNVNHKPSNTKVDKKV[letters of human IgG1 Fc omitted] light: QIVLTQSPGTLSLSPGERATLSCSASSTIGFMYWYQQKPGQAPRRWIYDTSKLASGVPDRFSGSGSGTDYTLTISRLEPEDFAVYYCHQRSSYPTFGQGTKVEIKRTVAAPSVFIFPPSDEQLKSGTASVVCLLNNFYPREAKVQWKVDNALQSGNSQESVTEQDSKDSTYSLSSTLTLSKADYEKHKVYACEVTHQGLSSPVTKSFNRGEC | did not bind | 47757.42 | 36060.02 | 24.49% | 886000 M⁻¹ s⁻¹ | 0.000155 s⁻¹ | 246249.85 | 193742.47 | 21.32% |  | 
ADC2 (conjugate) heavy: EVQLVQSGAEVKKSGESLKISCKASGYTFTDYDINWVRQMPGKGLEWIGWIFPGDDTTKYNEKFKGQVTLSADKSTNTAYMQWSSLKASDTAMYYCARSPSFDYWGQGTLVTVSSASTKGPSVFPLAPSSKSTSGGTAALGCLVKDYFPEPVTVSWNSGALTSGVHTFPAVLQSSGLYSLSSVVTVPSSSLGTQTYICNVNHKPSNTKVDKKV[letters of human IgG1 Fc omitted] light: QIVLTQSPGTLSLSPGERATLSCSASSTIGFMYWYQQKPGQAPRRWIYDTSKLASGVPDRFSGSGSGTDYTLTISRLEPEDFAVYYCHQRSSYPTFGQGTKVEIKRTVAAPSVFIFPPSDEQLKSGTASVVCLLNNFYPREAKVQWKVDNALQSGNSQESVTEQDSKDSTYSLSSTLTLSKADYEKHKVYACEVTHQGLSSPVTKSFNRGEC |  |  |  |  |  |  |  |  |  | 858 ± 112 mm^3 | 62.02%

— US20250262316A1, “ANTIBODY-DRUG CONJUGATE AND APPLICATION THEREOF” (Bio-Thera Solutions, Ltd., priority 2021, published 2025)
